From paper PMC7349836, “Fructose 1,6-Bisphosphatase 2 Plays a Crucial Role in the Induction and Maintenance of Long-Term Potentiation” (Cells, 2020)

Sequences of proteins named here, by UniProt entry; tags and fusion partners are left off.
UniProt Q9UQM7, whole entry: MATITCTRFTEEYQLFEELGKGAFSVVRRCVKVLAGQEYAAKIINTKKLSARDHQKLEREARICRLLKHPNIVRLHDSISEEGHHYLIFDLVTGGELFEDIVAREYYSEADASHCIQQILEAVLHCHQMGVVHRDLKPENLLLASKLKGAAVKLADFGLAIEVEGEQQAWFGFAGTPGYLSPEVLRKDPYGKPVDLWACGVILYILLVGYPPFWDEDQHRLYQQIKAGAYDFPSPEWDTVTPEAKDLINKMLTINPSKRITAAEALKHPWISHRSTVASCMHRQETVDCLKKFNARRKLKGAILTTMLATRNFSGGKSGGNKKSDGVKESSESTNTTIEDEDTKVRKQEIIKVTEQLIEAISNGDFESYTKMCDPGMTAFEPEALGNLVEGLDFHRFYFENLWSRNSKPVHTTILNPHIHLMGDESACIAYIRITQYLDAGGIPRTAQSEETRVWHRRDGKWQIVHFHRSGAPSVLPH

Columns and labels:
[1] = molecular target: T1, Camk2α (ThermoFisher Scientific, PR4586C) (UniProt Q9UQM7 1-478); test: BLI; Camk2α (3.5 µg/mL) loaded on anti-His (His2) biosensor; Fbp2 50-400 nM; 25 °C; PBS with 2 mM Mg2+ and 10 µM Ca2+; global 1:1 fit and steady-state analysis; settings: both partners purified
[2] = molecular target: T1, Camk2α (ThermoFisher Scientific, …); test: MST; Camk2α (50 nM) labelled with RED tris-NTA; Fbp2 titrated 0.397 nM-13 µM; PBS with 0.05% Tween; 23 °C; settings: both partners purified

B1: recombinant human fructose 1,6-bisphosphatase 2 (Fbp2) (enzyme, UniProt O00757 1-339, looked up)
chain: MTDRSPFETDMLTLTRYVMEKGRQAKGTGELTQLLNSMLTAIKAISSAVRKAGLAHLYGIAGSVNVTGDEVKKLDVLSNSLVINMVQSSYSTCVLVSEENKDAIITAKEKRGKYVVCFDPLDGSSNIDCLASIGTIFAIYRKTSEDEPSEKDALQCGRNIVAAGYALYGSATLVALSTGQGVDLFMLDPALGEFVLVEKDVKIKKKGKIYSLNEGYAKYFDAATTEYVQKKKFPEDGSAPYGARYVGSMVADVHRTLVYGGIFLYPANQKSPKGKLRLLYECNPVAYIIEQAGGLATTGTQPVLDVKPEAIHQRVPLILGSPEDVQEYLTCVQKNQAGS
notes: fructose 1,6-bisphosphatase 2 (Fbp2), human, recombinant; The oligomeric state in these assays is not measured here; dimers and tetramers are cited from earlier work; source: recombinant, purified as described by [12]
[1]
  Kd: 100 nM
[2]
  Kd: 1200 nM
